Here are results for 2 substances from publication PMC11982464, “Structural insight into the catalytic mechanism of the bifunctional enzyme L-fucokinase/GDP-fucose pyrophosphorylase” (The Journal of Biological Chemistry, 2025).

This series has as its system Nc1ncnc2c1ncn2[C@@H]1O[C@H](COP(=O)(O)OP(=O)(O)OP(=O)(O)O)[C@@H](O)[C@H]1O. Nature of the series: purified protein. The following applies: Hill fit (sigmoidal), co-substrate L-fucose, 50 mM Hepes pH 7.5, 2 mM MnCl2.

In general, Km refers to the substrate concentration at which the rate is half of its maximum. Usually kcat stands for the maximal rate divided by the concentration of active sites. A word on the kcat/Km: it is the second-order rate constant that governs catalysis at low substrate concentration. As for FKP-CTD (Bacteroides fragilis), the Km was 4.4 ± 0.5 mM, the kcat was 2.6 s⁻¹ and the kcat/Km came out at 600 M⁻¹ s⁻¹.

For the substance “FKP-FL (L-fucokinase/GDP-β-L-fucose pyrophosphorylase, full length) (Bacteroides fragilis)”, under “fucokinase site”, the Km is 1.8 ± 0.1 mM, the kcat is 3.8 s⁻¹ and the kcat/Km was determined as 2100 M⁻¹ s⁻¹.
